Values quoted from earlier work, collected in patent publication US7833976B2, “Methods for treatment of tumors and metastases using a combination of anti-angiogenic and immuno therapies” (The Scripps Research Institute, priority 1999, dated 2010).

Conditions: treatment of B-cell non-Hodgkin's lymphoma

B1: IDEC-Y2B8: radioimmunotherapeutic that targets B-cells, for CD20(+) B-cell non-Hodgkin's lymphoma (conjugate, chains of the INN, looked up)
heavy: QAYLQQSGAELVRPGASVKMSCKASGYTFTSYNMHWVKQTPRQGLEWIGAIYPGNGDTSYNQKFKGKATLTVDKSSSTAYMQLSSLTSEDSAVYFCARVVYYSNSYWYFDVWGTGTTVTVSAPSVYPLAPVCGDTTGSSVTLGCLVKGYFPEPVTLTWNSGSLSSGVHTFPAVLQSDLYTLSSSVTVTSSTWPSQSITCNVAHPASSTKVDKKIEPRGPTIKPCPPCKCPAPNLLGGPSVFIFPPKIKDVLMISLSPIVTCVVVDVSEDDPDVQISWFVNNVEVHTAQTQTHREDYNSTLRVVSALPIQHQDWMSGKEFKCKVNNKDLPAPIERTISKPKGSVRAPQVYVLPPPEEEMTKKQVTLTCMVTDFMPEDIYVEWTNNGKTELNYKNTEPVLDSDGSYFMYSKLRVEKKNWVERNSYSCSVVHEGLHNHHTTKSFSR
light: QIVLSQSPAILSASPGEKVTMTCRASSSVSYMHWYQQKPGSSPKPWIYAPSNLASGVPARFSGSGSGTSYSLTISRVEAEDAATYYCQQWSFNPPTFGAGTKLELKRADAAPTVFIFPPSDEQLKSGTASVVCLLNNFYPREAKVQWKVDNALQSGNSQESVTEQDSKDSTYSLSSTLTLSKADYEKHKVYACEVTHQGLSSPVTKSFN
modifications: yttrium-90 tiuxetan
notes: radioimmunotherapeutic that targets B-cells, for CD20(+) B-cell non-Hodgkin's lymphoma
maximum tolerated dose: 0.4 mCui/kg body weight
